Laboratory results published in ChEMBL document CHEMBL3272097, “Intramolecular hydrogen bonding and conformational studies of bridged thebaine and oripavine opiate narcotic agonists and antagonists” (1979).

Biological target: Opioid receptors; mu/kappa/delta (Homo sapiens) (UniProt P41145+P41143+P35372)
Assay: Displacement of [3H]naloxone from opioid receptor (unknown origin) relative to nalorphine

| SMILES | fold change (FC) |
| --- | --- |
| CO[C@]12C=C[C@@]3(CC1C(C)(C)O)[C@H]1Cc4ccc(O)c5c4[C@@]3(CCN1CC1CC1)[C@H]2O5 (some centres not stated) | 50 |
| C=CCN1CC[C@]23c4c5ccc(O)c4O[C@H]2[C@@]2(OC)C=C[C@@]3(CC2C(C)(C)O)[C@H]1C5 (some centres not stated) | 2 |
